Reference: patent US12583836B2 (Anaxis Pharma Pty Ltd, priority 2020, dated 2026)

Protein sequences, listed by entry. Tags and fused reporters are not part of them. Lines headed by an entry give the natural chain unless they say otherwise; changes in a name come on top.
UniProt Q9Y572: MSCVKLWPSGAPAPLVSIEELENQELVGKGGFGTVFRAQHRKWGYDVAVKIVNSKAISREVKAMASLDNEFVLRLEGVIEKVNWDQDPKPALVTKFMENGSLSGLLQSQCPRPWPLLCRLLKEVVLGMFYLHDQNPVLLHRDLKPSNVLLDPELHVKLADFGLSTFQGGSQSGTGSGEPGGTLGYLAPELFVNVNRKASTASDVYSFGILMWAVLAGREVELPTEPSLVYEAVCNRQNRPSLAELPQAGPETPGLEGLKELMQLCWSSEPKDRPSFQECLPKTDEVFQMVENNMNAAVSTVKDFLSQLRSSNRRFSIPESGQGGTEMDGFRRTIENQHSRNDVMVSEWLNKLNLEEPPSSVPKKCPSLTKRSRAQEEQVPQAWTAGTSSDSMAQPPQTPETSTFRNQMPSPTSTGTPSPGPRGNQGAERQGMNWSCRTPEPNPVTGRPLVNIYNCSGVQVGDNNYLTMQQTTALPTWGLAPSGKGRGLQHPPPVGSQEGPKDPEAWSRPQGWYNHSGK

Columns and labels:
Details in all cases: equilibrium dissociation constant, class symbols
[1] = biological target: T1, RIP3 (Homo sapiens, UniProt Q9Y572); assay: KINOMEscan binding assay, RIP3
T1 construct: purchased DiscoverX (KINOMEscan service); host or cells: E. coli BL21-derived (T7 phage) or HEK293

[2] = biological target: T2, MLKL (full length) (Homo sapiens, UniProt Q8NB16); assay: KINOMEscan binding assay, MLKL
T2 construct: purchased DiscoverX (KINOMEscan service); host or cells: E. coli BL21-derived (T7 phage) or HEK293
T2 sequence (Q8NB16 1-471): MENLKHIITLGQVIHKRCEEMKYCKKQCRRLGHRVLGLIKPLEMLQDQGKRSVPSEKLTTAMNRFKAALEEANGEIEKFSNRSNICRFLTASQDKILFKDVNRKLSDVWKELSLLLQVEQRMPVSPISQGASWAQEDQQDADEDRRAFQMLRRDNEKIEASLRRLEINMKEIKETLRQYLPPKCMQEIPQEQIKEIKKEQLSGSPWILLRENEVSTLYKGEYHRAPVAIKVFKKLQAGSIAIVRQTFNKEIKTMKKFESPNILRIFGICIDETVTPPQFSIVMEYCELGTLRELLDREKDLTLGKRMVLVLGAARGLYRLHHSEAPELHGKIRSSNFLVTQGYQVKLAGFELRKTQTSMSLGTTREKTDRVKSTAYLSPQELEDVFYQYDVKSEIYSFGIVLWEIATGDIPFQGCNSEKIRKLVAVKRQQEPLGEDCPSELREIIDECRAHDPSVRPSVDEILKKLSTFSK

[3] = biological target: T3, RIP1 (Homo sapiens, UniProt Q13546); assay: KINOMEscan binding assay, RIP1
T3 construct: purchased DiscoverX (KINOMEscan service); host or cells: E. coli BL21-derived (T7 phage) or HEK293
T3 sequence (Q13546 1-671): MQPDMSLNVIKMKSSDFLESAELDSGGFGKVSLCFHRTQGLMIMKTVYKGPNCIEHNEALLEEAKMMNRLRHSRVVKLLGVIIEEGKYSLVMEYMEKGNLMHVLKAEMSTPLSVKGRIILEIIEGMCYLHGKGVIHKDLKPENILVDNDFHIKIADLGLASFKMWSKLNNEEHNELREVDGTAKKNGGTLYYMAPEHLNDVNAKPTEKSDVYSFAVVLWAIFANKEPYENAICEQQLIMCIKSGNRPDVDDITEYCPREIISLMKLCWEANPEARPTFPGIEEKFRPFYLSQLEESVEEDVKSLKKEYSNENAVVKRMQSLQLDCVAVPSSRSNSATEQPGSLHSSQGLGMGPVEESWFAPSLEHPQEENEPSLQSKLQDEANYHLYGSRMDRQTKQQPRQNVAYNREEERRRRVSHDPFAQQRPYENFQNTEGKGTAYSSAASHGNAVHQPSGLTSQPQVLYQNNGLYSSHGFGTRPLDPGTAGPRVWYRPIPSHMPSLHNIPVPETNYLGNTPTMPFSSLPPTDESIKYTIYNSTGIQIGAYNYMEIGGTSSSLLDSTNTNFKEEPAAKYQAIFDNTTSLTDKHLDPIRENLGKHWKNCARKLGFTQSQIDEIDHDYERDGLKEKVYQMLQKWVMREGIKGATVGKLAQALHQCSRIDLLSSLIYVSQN

Row | Structure (SMILES) | Kd [1] [µM] | Kd [2] [µM] | Kd [3] [µM]
1 | Cc1cnc(Nc2[nH]nc(-c3ccc(NS(=O)(=O)CC(F)(F)F)c(OCc4ccc(F)c(Cl)c4)c3)c2C(N)=O)cn1 [Compound 155, 3-(3-((3-chloro-4-fluorobenzyl)oxy)-4-((2,2,2-trifluoroethyl)sulfonamido)phenyl)-5-((5-methylpyrazin-2-yl)amino)-1H-pyrazole-4-carboxamide] | > 30 | < 0.01 | > 30
2 | CCS(=O)(=O)Nc1ccc(-c2n[nH]c(Nc3ccnc(OCC(F)F)c3)c2C(N)=O)cc1 [Compound 106, 5-((2-(2,2-difluoroethoxy)pyridin-4-yl)amino)-3-(4-(ethylsulfonamido)phenyl)-1H-pyrazole-4-carboxamide] | > 30 | < 0.01 | > 30
3 | COCC(Oc1cc(-c2n[nH]c(Nc3cnccn3)c2C(N)=O)ccc1NS(=O)(=O)C(F)F)c1ccc(F)cc1 (stereo not shown) [Compound 319, 3-(4-((difluoromethyl)sulfonamido)-3-(1-(4-fluorophenyl)-2-methoxyethoxy)phenyl)-5-(pyrazin-2-ylamino)-1H-pyrazole-4-carboxamide] | > 30 | < 0.01 | > 30
4 | CCS(=O)(=O)Nc1ccc(-c2n[nH]c(Nc3cnccn3)c2C(N)=O)cc1OCC1CCN(C)CC1 [Compound 203, 3-(4-(ethylsulfonamido)-3-((1-methylpiperidin-4-yl)methoxy)phenyl)-5-(pyrazin-2-ylamino)-1H-pyrazole-4-carboxamide] | > 30 | 0.01 to 1 | > 30
5 | COc1cc(Nc2[nH]nc(-c3ccc(NS(=O)(=O)C(F)F)c(O[C@@H](C)c4ccc(F)cc4)c3)c2C(N)=O)nn1C [Compound 294, (S)-3-(4-((difluoromethyl)sulfonamido)-3-(1-(4-fluorophenyl)ethoxy)phenyl)-5-((5-methoxy-1-methyl-1H-pyrazol-3-yl)amino)-1H-pyrazole-4-carboxamide] | > 30 | < 0.01 | > 30
6 | NC(=O)c1c(-c2ccc(NS(=O)(=O)C(F)F)c(OCc3ccc(F)cc3)c2)n[nH]c1Nc1ccc(C(F)(F)F)nc1 [Compound 188, 3-(4-((difluoromethyl)sulfonamido)-3-((4-fluorobenzyl)oxy)phenyl)-5-((6-(trifluoromethyl)pyridine-3-yl)amino)-1H-pyrazole-4-carboxamide] | > 30 | < 0.01 | > 30
7 | N#Cc1cccc(Nc2[nH]nc(-c3ccc(NS(=O)(=O)C(F)F)cc3)c2C(N)=O)n1 [Compound 258, 5-[(6-cyanopyridin-2-yl)amino]-3-[4-(difluoromethanesulfonamido)phenyl]-1H-pyrazole-4-carboxamide] | > 30 | < 0.01 | > 30
8 | NC(=O)c1c(-c2ccc(NS(=O)(=O)CC(F)(F)F)c(OCc3ccc(Cl)c(F)c3)c2)n[nH]c1Nc1cnccn1 [Compound 165, 3-(3-((4-chloro-3-fluorobenzyl)oxy)-4-((2,2,2-trifluoroethyl)sulfonamido)phenyl)-5-(pyrazin-2-ylamino)-1H-pyrazole-4-carboxamide] | > 30 | < 0.01 | > 30
9 | CCS(=O)(=O)Nc1ccc(-c2n[nH]c(Nc3cnccn3)c2C(N)=O)cc1OCc1ccccc1F [Compound 2, 3-(4-(ethylsulfonamido)-3-((2-fluorobenzyl)oxy)phenyl)-5-(pyrazin-2-ylamino)-1H-pyrazole-4-carboxamide] | > 30 | 0.01 to 1 | > 30
10 | C[C@H](Oc1cc(-c2n[nH]c(Nc3cc(C4(C)CC4)on3)c2C(N)=O)ccc1NS(=O)(=O)C(F)F)c1ccc(F)cc1 [Compound 276, (S)-3-(4-((difluoromethyl)sulfonamido)-3-(1-(4-fluorophenyl)ethoxy)phenyl)-5-((5-(1-methylcyclopropyl)isoxazol-3-yl)amino)-1H-pyrazole-4-carboxamide] | > 30 | < 0.01 | > 30
11 | Cc1nn(C)cc1Nc1[nH]nc(-c2ccc(NS(=O)(=O)C(F)F)c(O[C@@H](C)c3ccc(F)cc3)c2)c1C(N)=O [Compound 270, (S)-3-(4-((difluoromethyl)sulfonamido)-3-(1-(4-fluorophenyl)ethoxy)phenyl)-5-((1,3-dimethyl-1H-pyrazol-4-yl)amino)-1H-pyrazole-4-carboxamide] | > 30 | < 0.01 | > 30
12 | CCS(=O)(=O)Nc1ccc(-c2n[nH]c(Nc3cnccn3)c2C(N)=O)cc1OCCc1ccccc1Cl [Compound 206, 3-(3-(2-chlorophenethoxy)-4-(ethylsulfonamido)phenyl)-5-(pyrazin-2-ylamino)-1H-pyrazole-4-carboxamide] | > 30 | < 0.01 | > 30
13 | C[C@H](Oc1cc(-c2n[nH]c(Nc3cc(C(F)(F)F)n(C)n3)c2C(N)=O)ccc1NS(=O)(=O)C(F)F)c1ccc(F)cc1 [Compound 277, (S)-3-(4-((difluoromethyl)sulfonamido)-3-(1-(4-fluorophenyl)ethoxy)phenyl)-5-((1-methyl-5-(trifluoromethyl)-1H-pyrazol-3-yl)amino)-1H-pyrazole-4-carboxamide] | > 30 | < 0.01 | > 30
14 | NC(=O)c1c(-c2ccc(NS(=O)(=O)C(F)F)c(OCc3ccc(F)cc3)c2)n[nH]c1Nc1cnc(C(F)(F)F)cn1 [Compound 246, 3-[4-(difluoromethanesulfonamido)-3-[(4-fluorophenyl)methoxy]phenyl]-5-{[5-(trifluoromethyl)pyrazin-2-yl]amino}-1H-pyrazole-4-carboxamide] | > 30 | < 0.01 | > 30
15 | NC(=O)c1c(-c2ccc(NS(=O)(=O)C(F)(F)F)cc2)n[nH]c1Nc1cccc(C(F)(F)F)n1 [Compound 205] | > 30 | < 0.01 | > 30
16 | NC(=O)c1c(-c2ccc(NS(=O)(=O)CC(F)(F)F)c(OCc3ccc(F)cn3)c2)n[nH]c1Nc1cnccn1 [Compound 231, 3-(3-((5-fluoropyridin-2-yl)methoxy)-4-((2,2,2-trifluoroethyl)sulfonamido)phenyl)-5-(pyrazin-2-ylamino)-1H-pyrazole-4-carboxamide] | > 30 | < 0.01 | > 30
17 | C[C@H](Oc1cc(-c2n[nH]c(Nc3cnccn3)c2C(N)=O)ccc1NS(=O)(=O)CC(F)(F)F)c1cccc(Cl)c1 [Compound 256, 3-{3-[(1S)-1-(3-chlorophenyl)ethoxy]-4-(2,2,2-trifluoroethane-sulfonamido)phenyl}-5-[(pyrazin-2-yl)amino]-1H-pyrazole-4-carboxamide] | > 30 | < 0.01 | > 30
18 | CCS(=O)(=O)Nc1ccc(-c2n[nH]c(Nc3cnc4ccccc4n3)c2C(N)=O)cc1 [Compound 67, 3-(4-(ethylsulfonamido)phenyl)-5-(quinoxalin-2-ylamino)-1H-pyrazole-4-carboxamide] | > 30 | < 0.01 | > 30
19 | NC(=O)c1c(-c2ccc(NS(=O)(=O)C(F)F)c(OCc3ccc(F)c(F)c3)c2)n[nH]c1Nc1cccc(C(F)(F)F)n1 [Compound 151, 3-(3-((3,4-difluorobenzyl)oxy)-4-((difluoromethyl)sulfonamido)phenyl)-5-((6-(trifluoromethyl)pyridine-2-yl)amino)-1H-pyrazole-4-carboxamide] | > 30 | < 0.01 | > 30
20 | NC(=O)c1c(-c2ccc(NS(=O)(=O)CC(F)(F)F)c(OCc3ccc(F)c(F)c3)c2)n[nH]c1Nc1cnccn1 [Compound 175, 3-(3-((3,4-difluorobenzyl)oxy)-4-((2,2,2-trifluoroethyl)sulfonamido)phenyl)-5-(pyrazin-2-ylamino)-1H-pyrazole-4-carboxamide] | > 30 | < 0.01 | > 30
21 | CCS(=O)(=O)Nc1ccc(-c2n[nH]c(Nc3cccc(C(F)F)n3)c2C(N)=O)cc1 [Compound 92, 5-((6-(difluoromethyl)pyridin-2-yl)amino)-3-(4-(ethylsulfonamido)phenyl)-1H-pyrazole-4-carboxamide] | 1 to 30 | < 0.01 | 
22 | CCS(=O)(=O)Nc1ccc(-c2n[nH]c(Nc3cnccn3)c2C(N)=O)cc1OCc1ccccn1 [Compound 261, 3-{4-ethanesulfonamido-3-[(pyridin-2-yl)methoxy]phenyl}-5-[(pyrazin-2-yl)amino]-1H-pyrazole-4-carboxamide] | > 30 |  | > 30
